Data reported in patent US20020177166A1, “Binding motif of a receptor” (MEDVET SCIENCE PTY.LTD., priority 2000, published 2002).

Assays:
Type in all cases: cell-based
TF-1 = TF-1 proliferation assay; settings: recombinant human cytokine produced in E. coli
Description: Recombinant human IL-3 and GM-CSF were produced in E. coli essentially as described in Barry, S. C. et al (1994) J. Biol chem, 269, 8488 and Hercus, T. R. et al (1994) Proc. Nati. Acad. Sci., 91, 5838. Cytokine purity and quantitation was determined by HPLC analysis and Coomasie staining of SDS-PAGE separated proteins. The activity of the cytokines based on the ED50 values in a TF-1 proliferation assay (Kitamura, T. et al (1989) J. Cell Physiol, 140, 323) was 0.03 ng/ml for GM-CSF and 0.1 ng/ml for IL-3.

14-3-3 binding to βc = assay: Co-immunoprecipitation of 14-3-3 with βc in CTL-EN cells; settings: CTL-EN wtβc, 50 ng/ml IL-3
Description: CTL-EN cells expressing IL-3Ra and either wtβc or βcHSRSLP→EFAAAA were washed, starved for 4 hours in DMEM containing 0.1% FCS and then stimulated with 50 ng/ml IL-3 for the indicated times. Cells were then lysed and the βc immunoprecipitated (7×10^7 cells/IP) with the 1C1 anti-βc specific mAb. Immunoprecipitates were divided and 80% or 20% were separately run on SDS-PAGE and transferred to nitrocellulose filters. (a) 80% of the immunoprecipitates were probed with the anti-phospho-Ser585βc antibody, the filters stripped, and reprobed with the 1C1 anti-βc mAb. 20% or the immunoprecipitates were probed with the 4G10 anti-phosphotyrosine antibody. (b) Regulation of 14-3-3 association with βc following IL-3 stimulation. […]
The regulation of βcSer585 phosphorylation in response to IL-3 stimulation was then examined in these cell lines using anti-phospho-Ser585βc antibodies. […] Tyrosine phosphorylation of βc was detected for both the wtβc and the βcHSRSLP→EFAAAA mutant (FIG. 11a). […]
To address the functional significance of 14-3-3 binding to βc cell lines were generated expressing either wild type (wt) or mutant IL-3 receptors lacking the 143-3 binding site. […] Immunoprecipitates were electrophoresed on a polyacrylamide gel and the amount of radiolabelled receptor immunoprecipitated was quantified using a phosphorImager. […]

CTL-EN cells = assay: MTS reduction assay of metabolic activity; settings: 0.1% FCS
Description: (a) CTL-EN cells expressing IL-3Ra and either wtβc or βcHSRSLP→EFAAAA were washed and then plated in duplicate at 2.5×10^5 cells/ml in DMEM containing 0.1% FCS and either 10 ng/ml IL-3, 10 ng/ml IL-2 or long/ml IL-3 and 5 mM LY294002. Viable cells were counted using the trypan blue exclusion method after 4 days. The results shown are typical of 3 experiments. (b) CTL-EN cells expressing IL-3Ra and either wtβc or βcHSRSLP→EFAAAA were washed and then plated in triplicate at 5×10^5 cells/ml in DMEM containing 0.1% FCS and either no IL-3, 1 ng/ml IL-3 or 10 ng/ml IL-3. Metabolic activity was measured each day using the CellTiter96 AQueous one solution cell proliferation assay according to the manufacturers instructions. Shown are the raw absorbance values (490 nm) plotted against day for CTL-EN cells expressing wtβc in the presence of no IL-3 (u), 1 ng/ml IL-3 (I) or 10 ng/ml IL3 (n) and CTL-EN cells expressing the βcHSRSLP→EFAAAA mutant in the presence of no IL-3 (u) or 10 ng/ml IL-3 (t).
Loss of cell viability in CTL-EN cells expressing the βcHSRSLP→EFAAAA in response to IL-3 was also reflected in loss of cellular metabolic activity as determined by the MTS reduction assay.
Loss of cell viability in CTL-EN cells expressing the βcHSRSLP→EFAAAA in response to IL-3 was also reflected in loss of cellular metabolic activity as determined by the MTS reduction assay. […]

B1: IL-3: recombinant human IL-3 produced in E. coli (protein, UniProt P08700 20-152, looked up)
Interleukin-3: APMTQTTPLKTSWVNCSNMIDEIITHLKQPPLPLLDFNNLNGEDQDILMENNLRRPNLEAFNRAVKSLQNASAIESILKNLLPCLPLATAAPTRHPIHIKDGDWNEFRRKLTFYLKTLENAQAQQTTLSLAIF
**Q.** Which “ED50 in TF-1 proliferation assay” value (TF-1) does the source give for B1 here?
**A.** 0.1 ng/mL

**Q.** And the “14-3-3 binding to βc” value (14-3-3 binding to βc)?
**A.** increased 14-3-3 binding to βc

**Q.** And the metabolic activity (CTL-EN cells; CTL-EN wtβc, up to 3 days)?
**A.** maintain appreciable levels of metabolic activity

**Q.** And the metabolic activity (CTL-EN cells; CTL-EN βcHSRSLP→EFAAAA)?
**A.** lost metabolic activity
